Literature values in US9023356B2, “Treatment method using EGFR antibodies and SRC inhibitors and related formulations” (Ludwig Institute for Cancer Research Ltd, priority 2007, dated 2015).

Legend:
[1] = test system: A431 and NR6M (express the de2-7 EGFR) xenografts; settings: full text: Xenografts expressing the de2-7 EGFR were resistant; NR6M express the de2-7 EGFR in the absence of the wt EGFR; cited from earlier work
A431 xenografts = settings: full text: Recurrent xenografts following complete regression were often resistant to further therapy; over-expression of VEGF common in resistant cell lines; cited from earlier work
[2] = test system: A431 and multiple NSCLC in vitro; settings: full text: No correlation with EGFR number; no in vivo data; cited from earlier work
[3] = test system: Patients with colorectal cancer; settings: full text: Response correlated with increase in EGFR copy number; small sample numbers; cited from earlier work
[4] = test system: Renal cell carcinomas in vitro; settings: full text: Only cells containing the VHL gene were sensitive; no in vivo data; cited from earlier work

Row | Compound | Observation [1] | Observation (A431 xenografts) | Observation [2] | Observation [3] | Observation [4]
1 | COc1cc2ncnc(Nc3ccc(F)c(Cl)c3)c2cc1OCCCN1CCOCC1 [ZD1839] | Xenografts expressing |  |  |  | 
2 | C225: monoclonal antibody directed to the EGFR |  | Recurrent xenografts | No correlation with | Response correlated | Only cells containing
